AlphaSeq binding of Ab-14 light chain variants to a spike HR2 peptide

Reference: Engelhart et al. 2022, doi:10.1038/s41597-022-01779-4. File: FLAb, binding data.

Target peptide (SARS-CoV-2 spike, HR2 region): PDVDLGDISGINAS

Each scFv is VH, three GGGGS repeats, VL, as in the parent Ab-14, and differs from it in the CDRs of the light chain only.
VH: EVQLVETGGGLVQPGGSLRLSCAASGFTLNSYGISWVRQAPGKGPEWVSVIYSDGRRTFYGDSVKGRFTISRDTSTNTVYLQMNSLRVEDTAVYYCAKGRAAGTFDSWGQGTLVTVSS
VL: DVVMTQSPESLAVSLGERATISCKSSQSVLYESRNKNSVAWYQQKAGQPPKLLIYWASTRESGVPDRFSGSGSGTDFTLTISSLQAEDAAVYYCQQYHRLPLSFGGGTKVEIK

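The starting antibody came from a phage panning campaign against this peptide. Variants in AAYL50 differ from the parent at up to three CDR positions; double and triple changes were sampled at random. In AlphaSeq, yeast of one mating type display the scFv and yeast of the other type display the target. Pairs that bind mate more often; barcode pairs of the diploids are counted by sequencing. Scores were corrected for input abundance and mapped to Kd with protein pairs of known affinity run in the same pool. The assay was run in three technical replicates.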

Positions count from residue 1 of the parent VL; S25D puts D in place of S. Numbers give log10(Kd / nM), so 0 is 1 nM and 3 is 1 µM. Smaller is tighter. An entry "n.d." has no value in the source: the pair was not observed among the diploids in that replicate. This suggests poor binding but is not conclusive.

| log10 Kd (nM) by replicate | empty controls | changes |
|---|---|---|
| n.d. / 4.48 / 4.10 | 2 of 9 (3.95) | S25D/R34C/S58L |
| n.d. / n.d. / 5.31 | 2 of 9 (3.74) | S38T/S58H/P101M |
| 1.78 / 1.78 / 1.89 | 4 of 9 (4.24) | S26A/E32G/E61P |
| 0.68 / 1.03 / 0.95 | 2 of 9 (4.80) | L30T/L102F |
| 0.54 / 0.77 / 0.73 | 3 of 9 (4.64) | E61A/Q95K/H98A |
| 0.49 / 0.69 / 0.61 | 3 of 9 (4.24) | Y31A/N35Q/S58F |
| n.d. / 3.90 / n.d. | 2 of 9 (3.34) | W56Q/R60G/L100N |
| n.d. / n.d. / n.d. | 0 of 9 | S26C/V29D/A57D |
| n.d. / n.d. / n.d. | 1 of 9 (4.34) | S38R/A57F/Q95R |
| n.d. / 3.45 / 4.52 | 4 of 9 (3.70) | N35W/A57V/Q96V |
| n.d. / 4.05 / n.d. | 2 of 9 (3.97) | V39W/S103E |
| n.d. / n.d. / n.d. | 1 of 9 (3.18) | L30W/N35G/A57W |
| n.d. / n.d. / 3.73 | 3 of 9 (3.41) | V29I/N37A/Q96R |
| n.d. / n.d. / n.d. | 0 of 9 | S38F/V39C |
| n.d. / n.d. / n.d. | 1 of 9 (3.54) | E32M/N37R/V39N |
| 1.92 / 2.25 / 1.97 | 1 of 9 (3.55) | S26I/V29D/N37A |
| 2.53 / n.d. / n.d. | 1 of 9 (2.08) | R34Q/V39R/S58D |
| 1.22 / 1.55 / 1.79 | 4 of 9 (3.87) | S28M/R34K/N35P |
| 4.30 / 3.04 / n.d. | 4 of 9 (4.62) | V29R/R34F/T59P |
| n.d. / 5.14 / 3.65 | 3 of 9 (3.55) | R34P/E61A/S103I |
| n.d. / n.d. / n.d. | 2 of 9 (3.24) | Q27L/N37V/L100H |
| 0.87 / 1.03 / 0.93 | 4 of 9 (4.42) | A40S/W56D/A57I |
| 0.59 / 0.76 / 0.76 | 1 of 9 (3.81) | E32P/A57Q/S58D |
| 1.55 / 1.58 / 1.59 | 2 of 9 (4.26) | N35P/Q96V/R99Y |
| 3.70 / n.d. / 4.55 | 5 of 9 (4.18) | K24G/S26Q/Q96G |
| n.d. / n.d. / n.d. | 0 of 9 | S28L/N37K/S38Y |
| 1.35 / 1.26 / 1.47 | 2 of 9 (4.67) | S26E/L30D/S58H |
| 1.05 / 1.02 / 1.19 | 2 of 9 (3.87) | K24D/A57E/S62Q |
| 1.29 / 1.60 / 1.46 | 1 of 9 (2.98) | R34W/P101F/S103H |
| 1.50 / 1.53 / 1.82 | 1 of 9 (4.86) | K24T/L30A/R34L |
| 1.23 / 1.50 / 0.89 | 1 of 9 (3.14) | S28P/L30T/S58Y |
| -0.06 / 0.32 / 0.18 | 1 of 9 (5.33) | S25V/N35F |
| 3.04 / 1.52 / 2.18 | 1 of 9 (2.77) | V29Y/N37P/S62P |
| 3.72 / n.d. / 1.96 | 0 of 9 | N35V/E61R/R99Q |
| n.d. / n.d. / n.d. | 0 of 9 | Y31P/S38L/R60Q |
| 3.17 / n.d. / n.d. | 2 of 9 (3.39) | K36I/A57D/S103C |

5 of these entries, quoted again:

changes,log10 Kd (nM) by replicate,empty controls
S38R/A57F/Q95R,n.d. / n.d. / n.d.,1 of 9 (4.34)
E61A/Q95K/H98A,0.54 / 0.77 / 0.73,3 of 9 (4.64)
S28P/L30T/S58Y,1.23 / 1.50 / 0.89,1 of 9 (3.14)
L30T/L102F,0.68 / 1.03 / 0.95,2 of 9 (4.80)
S28M/R34K/N35P,1.22 / 1.55 / 1.79,4 of 9 (3.87)

For reference, the parent read 0.65 as the reference entry and 1.68 as a member of this library. Three control strains display no target. For library AAYL50, 18% of the pairings with them gave a signal, with a median of 4.19 and one signal in twenty below 2.99, so weak values seen in few replicates may be background. For each scFv, signals with the empty controls are counted beside the result, with their mean in brackets.